Assay results reported in patent US9943484B2, “Preparation of polylactide-polyglycolide microparticles having a sigmoidal release profile” (PHARMATHEN S.A., priority 2013, dated 2018).

Experiment: physchem
Details: pH 7.4, aqueous buffer

Question: For Cc1nc2n(c(=O)c1CCN1CCC(c3noc4cc(F)ccc34)CC1)CCCC2 [risperidone], which solubility is on record?
Answer: 220 µg/mL (≈ 536 µM)

Values after ≈ are worked out from the molar mass of the structure shown.
